# Values quoted from earlier work, collected in patent publication US20240115492A1, “AN ORODISPERSIBLE PHARMACEUTICAL SOLID DOSAGE FORM OF RASAGILINE” (INTAS PHARMACEUTICALS LTD., priority 2021, published 2024).
# The chains behind the UniProt entries cited, without tags or fusion partners.
# UniProt P27338, whole entry: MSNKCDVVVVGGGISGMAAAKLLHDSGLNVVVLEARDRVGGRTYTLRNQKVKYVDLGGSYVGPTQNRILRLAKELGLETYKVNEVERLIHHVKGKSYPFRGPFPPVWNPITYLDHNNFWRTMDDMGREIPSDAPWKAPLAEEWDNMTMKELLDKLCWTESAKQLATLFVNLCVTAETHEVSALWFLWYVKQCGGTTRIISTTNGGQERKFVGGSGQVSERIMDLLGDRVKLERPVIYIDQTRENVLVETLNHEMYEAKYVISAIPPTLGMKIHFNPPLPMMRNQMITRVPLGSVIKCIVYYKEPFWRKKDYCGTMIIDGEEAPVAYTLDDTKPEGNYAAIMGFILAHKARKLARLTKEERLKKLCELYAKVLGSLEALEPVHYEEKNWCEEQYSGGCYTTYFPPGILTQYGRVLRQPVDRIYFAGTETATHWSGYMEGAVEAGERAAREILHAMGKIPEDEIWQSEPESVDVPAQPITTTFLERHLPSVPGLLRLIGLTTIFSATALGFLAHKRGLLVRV
# Molecular target: monoamine oxidase B (Homo sapiens, UniProt P27338)
smiles,measurement,value
NC1CCc2ccccc21 (stereo not shown) [indan-1-amine],inhibition of monoamine oxidase B,does not inhibit
